Laboratory results from ChEMBL document CHEMBL1153997, “Discovery of oxazolo[4,5-b]pyridines and related heterocyclic analogs as novel SIRT1 activators” (Bioorg Med Chem Lett, 2009).

Target: T1, NAD-dependent protein deacetylase sirtuin-1 (Homo sapiens) (UniProt Q96EB6)
T1 sequence (whole entry): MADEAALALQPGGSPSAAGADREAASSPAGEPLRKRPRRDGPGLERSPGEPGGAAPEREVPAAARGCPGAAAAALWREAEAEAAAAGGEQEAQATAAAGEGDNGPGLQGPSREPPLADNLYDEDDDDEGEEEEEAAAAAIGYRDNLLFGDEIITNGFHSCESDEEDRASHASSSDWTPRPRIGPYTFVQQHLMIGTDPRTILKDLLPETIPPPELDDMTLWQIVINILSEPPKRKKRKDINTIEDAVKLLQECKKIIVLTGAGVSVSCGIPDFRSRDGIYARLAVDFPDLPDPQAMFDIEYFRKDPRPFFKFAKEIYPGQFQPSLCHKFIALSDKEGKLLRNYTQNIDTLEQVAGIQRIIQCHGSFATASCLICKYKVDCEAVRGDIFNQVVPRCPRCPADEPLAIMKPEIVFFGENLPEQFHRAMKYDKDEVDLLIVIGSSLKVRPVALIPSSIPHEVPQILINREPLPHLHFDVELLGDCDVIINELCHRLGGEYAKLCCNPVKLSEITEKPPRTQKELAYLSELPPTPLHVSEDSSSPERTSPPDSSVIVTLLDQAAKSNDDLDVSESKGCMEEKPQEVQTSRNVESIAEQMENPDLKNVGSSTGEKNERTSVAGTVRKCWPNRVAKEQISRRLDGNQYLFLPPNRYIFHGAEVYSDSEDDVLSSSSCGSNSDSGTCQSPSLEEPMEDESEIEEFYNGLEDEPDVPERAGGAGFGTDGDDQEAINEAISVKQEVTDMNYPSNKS
Test: Activation of human SIRT1 expressed in Escherichia coli BL21 (DE3) assessed as concentration required to increase 50% enzyme activity by fluorescence polarization assay

EC1.5: 46 µM
Structure (SMILES): Oc1ccc(/C=C/c2cc(O)cc(O)c2)cc1
